Biological target: T1, Neutrophil elastase (Homo sapiens, UniProt P08246)
T1 sequence (P08246 whole entry): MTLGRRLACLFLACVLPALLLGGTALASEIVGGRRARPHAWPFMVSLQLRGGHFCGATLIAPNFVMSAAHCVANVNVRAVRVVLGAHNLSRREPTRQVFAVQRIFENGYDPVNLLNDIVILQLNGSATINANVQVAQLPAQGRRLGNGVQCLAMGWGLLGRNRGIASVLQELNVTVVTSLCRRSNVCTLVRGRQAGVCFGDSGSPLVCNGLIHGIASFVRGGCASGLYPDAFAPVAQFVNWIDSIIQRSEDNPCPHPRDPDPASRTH
Test: Inhibition of human neutrophil elastase (unknown origin)

With CC(C)(C)C(=O)Oc1ccc(S(=O)(=O)Nc2ccccc2C(=O)NCC(=O)O)cc1 as the molecule, how does the IC50 read?
Its IC50 is 54.1 µM.
